The values below come from publication PMC13657631, “Product-stabilized filamentation by human glutamine synthetase allosterically tunes metabolic activity” (2026).

By UniProt entry, the sequences of proteins in these tests, tags left out. Residues count along the entry.
UniProt P15104, 2-373 limits assumed: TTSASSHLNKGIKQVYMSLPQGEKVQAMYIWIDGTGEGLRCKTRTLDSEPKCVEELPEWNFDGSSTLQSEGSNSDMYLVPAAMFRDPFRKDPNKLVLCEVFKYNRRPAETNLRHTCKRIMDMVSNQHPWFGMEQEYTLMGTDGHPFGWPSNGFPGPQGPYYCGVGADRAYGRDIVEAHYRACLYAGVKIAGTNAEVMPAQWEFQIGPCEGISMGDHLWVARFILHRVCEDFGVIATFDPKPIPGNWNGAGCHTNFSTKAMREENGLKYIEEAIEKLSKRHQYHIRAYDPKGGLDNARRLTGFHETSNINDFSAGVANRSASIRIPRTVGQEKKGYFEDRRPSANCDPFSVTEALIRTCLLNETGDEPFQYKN
UniProt P15104, 2-373 R298A limits assumed: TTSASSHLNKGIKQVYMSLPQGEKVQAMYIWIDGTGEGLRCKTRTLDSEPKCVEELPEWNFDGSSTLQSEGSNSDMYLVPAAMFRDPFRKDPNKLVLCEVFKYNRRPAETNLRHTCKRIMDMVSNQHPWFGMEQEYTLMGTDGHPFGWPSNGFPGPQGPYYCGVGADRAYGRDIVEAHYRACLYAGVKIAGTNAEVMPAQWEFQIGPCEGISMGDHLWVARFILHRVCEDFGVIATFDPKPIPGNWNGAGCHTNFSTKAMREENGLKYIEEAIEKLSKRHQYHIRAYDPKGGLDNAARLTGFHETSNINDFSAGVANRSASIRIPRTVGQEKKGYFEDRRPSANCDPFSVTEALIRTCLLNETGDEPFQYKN
UniProt P15104, 2-373 D239A limits assumed: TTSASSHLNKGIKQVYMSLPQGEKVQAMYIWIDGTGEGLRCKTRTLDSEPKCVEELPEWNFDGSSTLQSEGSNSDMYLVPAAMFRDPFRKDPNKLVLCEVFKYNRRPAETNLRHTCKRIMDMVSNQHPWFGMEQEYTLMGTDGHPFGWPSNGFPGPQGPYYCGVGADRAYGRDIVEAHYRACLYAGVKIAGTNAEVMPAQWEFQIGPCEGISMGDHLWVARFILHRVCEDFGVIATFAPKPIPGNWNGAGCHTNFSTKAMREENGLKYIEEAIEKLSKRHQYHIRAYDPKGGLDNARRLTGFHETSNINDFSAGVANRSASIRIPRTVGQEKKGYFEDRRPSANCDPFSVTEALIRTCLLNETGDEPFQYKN
UniProt P15104, 2-373 C53A limits assumed: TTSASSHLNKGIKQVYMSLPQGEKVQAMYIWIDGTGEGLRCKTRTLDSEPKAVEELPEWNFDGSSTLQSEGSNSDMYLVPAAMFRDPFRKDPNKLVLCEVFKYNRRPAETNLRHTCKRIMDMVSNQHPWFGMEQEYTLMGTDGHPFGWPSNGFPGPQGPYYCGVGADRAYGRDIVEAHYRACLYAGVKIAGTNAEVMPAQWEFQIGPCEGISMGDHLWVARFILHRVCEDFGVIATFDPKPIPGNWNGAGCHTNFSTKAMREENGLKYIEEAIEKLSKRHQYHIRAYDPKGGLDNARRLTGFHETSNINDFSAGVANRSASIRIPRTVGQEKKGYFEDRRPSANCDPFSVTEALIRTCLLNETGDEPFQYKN
UniProt P15104, 2-373 K52A limits assumed: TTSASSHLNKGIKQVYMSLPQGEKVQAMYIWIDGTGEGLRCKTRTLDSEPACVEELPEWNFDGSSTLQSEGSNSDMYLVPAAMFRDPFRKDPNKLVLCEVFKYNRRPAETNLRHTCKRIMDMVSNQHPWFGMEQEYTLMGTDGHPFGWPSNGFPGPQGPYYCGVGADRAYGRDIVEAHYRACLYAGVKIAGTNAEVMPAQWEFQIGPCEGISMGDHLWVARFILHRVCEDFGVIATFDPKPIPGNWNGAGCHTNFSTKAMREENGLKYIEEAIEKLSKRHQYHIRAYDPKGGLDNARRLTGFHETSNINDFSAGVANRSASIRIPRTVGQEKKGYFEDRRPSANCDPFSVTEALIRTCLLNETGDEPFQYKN
UniProt P15104, 2-373 E305A limits assumed: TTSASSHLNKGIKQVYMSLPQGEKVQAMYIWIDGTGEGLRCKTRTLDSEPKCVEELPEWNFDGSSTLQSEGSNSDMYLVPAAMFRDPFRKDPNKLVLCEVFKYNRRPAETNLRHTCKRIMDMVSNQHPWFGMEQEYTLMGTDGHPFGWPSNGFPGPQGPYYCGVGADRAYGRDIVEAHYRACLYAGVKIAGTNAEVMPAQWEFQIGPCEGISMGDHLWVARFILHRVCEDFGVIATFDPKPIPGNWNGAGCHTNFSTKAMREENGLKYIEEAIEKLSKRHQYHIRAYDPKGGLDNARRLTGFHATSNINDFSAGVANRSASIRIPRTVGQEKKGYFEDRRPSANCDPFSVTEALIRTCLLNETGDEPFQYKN
UniProt P15104, 2-373 H304A limits assumed: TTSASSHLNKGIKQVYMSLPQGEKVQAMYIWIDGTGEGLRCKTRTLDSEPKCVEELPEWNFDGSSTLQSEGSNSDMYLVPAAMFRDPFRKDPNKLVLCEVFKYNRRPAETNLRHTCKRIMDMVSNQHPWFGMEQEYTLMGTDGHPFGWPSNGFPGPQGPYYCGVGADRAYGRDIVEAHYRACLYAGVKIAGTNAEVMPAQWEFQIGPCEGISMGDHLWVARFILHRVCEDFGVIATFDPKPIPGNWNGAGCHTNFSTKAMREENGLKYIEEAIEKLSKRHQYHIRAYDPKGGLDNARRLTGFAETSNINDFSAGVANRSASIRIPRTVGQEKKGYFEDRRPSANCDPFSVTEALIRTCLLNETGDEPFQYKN
UniProt P15104, 2-373 I309A limits assumed: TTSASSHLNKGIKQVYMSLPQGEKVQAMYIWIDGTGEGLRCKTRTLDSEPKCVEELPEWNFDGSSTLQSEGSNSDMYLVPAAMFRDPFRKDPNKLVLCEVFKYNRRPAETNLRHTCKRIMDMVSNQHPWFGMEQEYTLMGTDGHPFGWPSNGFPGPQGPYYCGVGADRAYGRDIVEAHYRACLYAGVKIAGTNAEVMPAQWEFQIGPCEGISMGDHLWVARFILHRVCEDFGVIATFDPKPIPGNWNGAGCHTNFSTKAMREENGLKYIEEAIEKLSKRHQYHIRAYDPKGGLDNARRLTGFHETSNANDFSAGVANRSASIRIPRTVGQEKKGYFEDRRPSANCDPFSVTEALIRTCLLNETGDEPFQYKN

Like-named read-outs stand apart in the source and are kept apart here.

For orientation: Km means the concentration of substrate that gives half-maximal velocity.

The target of assay [1] is scarless human glutamine synthetase (GS) (Homo sapiens, UniProt P15104, C53A, form not given). The assay can be described thus: NADH-coupled ATPase assay, global progress-curve fit (KinTek Explorer). The following applies: read-out: KM, ammonia; no added glutamine; 0.1 mg/mL enzyme, saturating glutamate and ATP, room temperature.
Assay [2] concerns the target scarless human glutamine synthetase (GS) (Homo sapiens, UniProt P15104, K52A, form not given). The assay is described as above. The following applies: read-out: KM, ammonia; no added glutamine; 0.1 mg/mL enzyme, saturating glutamate and ATP, room temperature.
The target of assay [3] is scarless human glutamine synthetase (GS) (Homo sapiens, UniProt P15104, E305A, form not given). Nature of the assay: NADH-coupled ATPase assay (pyruvate kinase / lactate dehydrogenase). Particulars: read-out: KM, ammonia; saturating glutamate and ATP, 10 mM MgCl2.
The target in assay [4] is T1, scarless human glutamine synthetase (GS) (Homo sapiens, UniProt P15104, R298A, form not given). Described as above.
The target of assay [5] is scarless human glutamine synthetase (GS) (Homo sapiens, UniProt P15104, D239A, form not given). The assay is described as above.
Assay [6] has as its target T2, scarless human glutamine synthetase (GS) (Homo sapiens, UniProt P15104). Nature of the assay: cryo-EM structure of turnover filament. Particulars: allosteric; filament interface site (K52, C53, E55), not the active site; formed as product under turnover.
For assay [7], the target named is scarless human glutamine synthetase (GS) (Homo sapiens, UniProt P15104, I309A, form not given). The assay can be described thus: NADH-coupled ATPase assay (pyruvate kinase / lactate dehydrogenase). Particulars: read-out: KM, glutamate; saturating ATP and ammonium, 10 mM MgCl2, pH 7.5-7.6.
Assay [8] has as its target T2, scarless human glutamine synthetase (GS). The assay is described as above. The following applies: read-out: KM, glutamate; saturating ATP and ammonium, 10 mM MgCl2, pH 7.5-7.6.
The target of a further assay is His6-tagged GS (Homo sapiens, UniProt P15104). The assay is described as above. The following applies: saturating ATP and ammonium; tagged enzyme with decoupled ATP hydrolysis.
Assay [9] has as its target scarless human glutamine synthetase (GS) (Homo sapiens, UniProt P15104, H304A, form not given). Described as above. The following applies: read-out: KM, glutamate; saturating ATP and ammonium, 10 mM MgCl2, pH 7.5-7.6.
In assay [10] the target is T1, scarless human glutamine synthetase (GS). Nature of the assay: cryo-EM structure of R298A turnover decamer. The following applies: active site; ADP with Mg(II), turnover conditions.
The target of assay [11] is T2, scarless human glutamine synthetase (GS). The assay can be described thus: cryo-EM structure of turnover decamer. The following applies: active site; ADP with Mg(II), turnover conditions.
Where [12] appears, read: read-out: KM, ammonia, saturating glutamate and ATP, 10 mM MgCl2.
[13] abbreviates: read-out: KM, glutamate, saturating ATP and ammonium, 10 mM MgCl2, pH 7.5-7.6.

For the compound `N`, the Michaelis constant (Km) turned out to be 88 µM in [1]; 110 µM in [2]; 559 µM in assay [3]; 113 µM in [4] (setting [12]); 114 µM in assay [5] (setting [12]).

Turning to `NC(=O)CC[C@H](N)C(=O)O`, the “cryo-EM structure of turnover filament” value in assay [6] is “glutamine modeled which forms hydrogen bonds with K52, C53, and E55”.

On to `N[C@@H](CCC(=O)O)C(=O)O`, for which the Km in [7] stood at 21000 µM; in [4] (setting [13]) it was 38000 µM; in [8], 1600 µM; in assay [5] (setting [13]) it was 47000 µM; in assay [9] it was 11000 µM. Further, on His6-tagged GS, the “KM,glutamate” value is reported as “KMglutamate is noted to be threefold higher for His6-tagged GS”.

As to `Nc1ncnc2c1ncn2[C@@H]1O[C@H](COP(=O)(O)OP(=O)(O)O)[C@@H](O)[C@H]1O`, in assay [10], the “cryo-EM structure of R298A turnover decamer” value is “Active site ADP and Mg(II) density (sharpened) depiction”. Besides, the “cryo-EM structure of turnover decamer” value in assay [11] was “Active site ADP and Mg(II) density (sharpened) depiction”.
